# Results: PubChem BioAssay AID1671463 (Sanford-Burnham Center for Chemical Genomics, 2021)
# The chains behind the UniProt entries cited, without tags or fusion partners.
# UniProt P16066, whole entry: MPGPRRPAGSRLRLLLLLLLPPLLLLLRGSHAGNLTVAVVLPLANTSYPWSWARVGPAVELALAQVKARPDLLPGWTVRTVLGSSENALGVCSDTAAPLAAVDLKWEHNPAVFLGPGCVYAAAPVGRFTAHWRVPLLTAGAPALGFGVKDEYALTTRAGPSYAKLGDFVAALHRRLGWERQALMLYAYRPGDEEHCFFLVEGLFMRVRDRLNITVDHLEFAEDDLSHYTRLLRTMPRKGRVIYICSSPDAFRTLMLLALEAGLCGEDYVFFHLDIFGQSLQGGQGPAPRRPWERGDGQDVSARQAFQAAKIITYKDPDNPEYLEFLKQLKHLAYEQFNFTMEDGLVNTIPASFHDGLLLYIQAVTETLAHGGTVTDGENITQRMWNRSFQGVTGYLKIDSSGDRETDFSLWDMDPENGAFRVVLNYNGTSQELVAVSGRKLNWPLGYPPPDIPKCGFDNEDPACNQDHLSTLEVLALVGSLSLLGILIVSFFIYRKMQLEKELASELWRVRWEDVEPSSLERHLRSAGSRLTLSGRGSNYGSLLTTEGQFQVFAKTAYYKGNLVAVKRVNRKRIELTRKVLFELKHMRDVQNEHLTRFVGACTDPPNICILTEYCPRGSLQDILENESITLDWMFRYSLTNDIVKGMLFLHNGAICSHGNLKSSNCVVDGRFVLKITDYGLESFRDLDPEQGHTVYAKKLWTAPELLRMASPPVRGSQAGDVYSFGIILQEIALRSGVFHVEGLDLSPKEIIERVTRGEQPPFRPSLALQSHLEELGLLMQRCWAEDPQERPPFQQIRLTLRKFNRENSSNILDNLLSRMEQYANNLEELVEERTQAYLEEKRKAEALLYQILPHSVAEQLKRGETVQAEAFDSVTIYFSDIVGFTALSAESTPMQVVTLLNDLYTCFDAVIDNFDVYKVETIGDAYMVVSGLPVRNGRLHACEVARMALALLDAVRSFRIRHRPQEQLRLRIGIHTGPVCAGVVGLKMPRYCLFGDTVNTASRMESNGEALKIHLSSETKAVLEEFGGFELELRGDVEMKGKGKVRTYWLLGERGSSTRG
# Only a part is listed here, and it is no random draw. Calls of active or inactive are those of the source. No stated cut-off is given here; in the data, active means activation above about 40%; inactive means the rest.
# Biological target: Atrial natriuretic peptide receptor 1 (Homo sapiens) (UniProt P16066)
# Experiment: GC-A stimulated cGMP production enhancers – HEK293 GC-A cells, cGMP TR-FRET, EC30 ANP, primary screen (AID 1671463)
# Conditions: at 10 µM, hits give high values, 0% at EC30 ANP, 100% saturating ANP
row,Compound,activation
1,CCN1CCC(Nc2ccc(Cl)cc2)CC1,inactive: 2.2%
2,CSc1ccc(C(=O)NCC2(N3CCOCC3)CCCCC2)cc1,inactive: -2.24%
3,O=C(NCC1(N2CCCCC2)CCCCC1)c1cccc([N+](=O)[O-])c1,inactive: 1.04%
4,CN1CCC(Nc2cccc(F)c2)CC1,inactive: -0.59%
5,O=C(NCC1(N2CCCCC2)CCCCC1)c1cncc(Br)c1,inactive: 2.55%
6,COc1ccc(C(c2nnnn2C2CCCC2)N2CCC(n3c(=O)[nH]c4ccccc43)CC2)cc1 (stereo not given),inactive: -6.31%
7,CCCOc1ccc(C(=O)NCC2(N(C)C)CCCCC2)cc1OC,inactive: -2.02%
8,Cc1ccc(C(=O)NCC2(N(C)C)CCCCC2)o1,inactive: 2.73%
9,CC(C)c1ccc(NC2CCN(C(=O)OC(C)(C)C)CC2)cc1,inactive: 6.43%
10,CN(C)c1cccc(C(=O)NCC2(N3CCCCC3)CCCCC2)c1,inactive: -3.02%
11,COc1ccc(CN(CCCl)CCCl)cc1Cl,inactive: -3.25%
12,COC(=O)C1(Nc2ccccc2)CCN(Cc2ccccc2)CC1,inactive: 2.7%
13,O=C(NCC1(N2CCOCC2)CCCCC1)c1cc(F)c(F)cc1Cl,inactive: 2.01%
14,CCC(c1nnnn1C(C)(C)C)N1CCC(n2c(=O)[nH]c3ccccc32)CC1 (stereo not given),inactive: -2.81%
15,COc1cc(OC)c(C(=O)NCC2(N(C)C)CCCCC2)cc1OC,inactive: 4.23%
16,CCCCn1nnnc1C(c1ccnc2ccccc12)N1CCC(n2c(=O)[nH]c3ccccc32)CC1 (stereo not given),inactive: -4.25%
17,Cc1cc(C)cc(N(C(=O)c2ccccc2)C2CCN(C(=O)OC(C)(C)C)CC2)c1,inactive: -3.61%
18,O=C(NCC1(N2CCCCC2)CCCCC1)c1ccc(Cl)nc1,inactive: 0.36%
19,O=c1[nH]c2ccccc2n1C1CCN(C(c2ccccc2OC(F)(F)F)c2nnnn2C2CCCCC2)CC1 (stereo not given),inactive: -4.02%
20,O=C(NCC1(N2CCOCC2)CCCCC1)c1cc2ccccc2o1,inactive: -0.95%
21,COc1ccc(Cl)cc1C(=O)NCC1(N2CCOCC2)CCCCC1,inactive: -0.23%
22,N#CC1(Nc2ccccc2)CCN(Cc2ccccc2)CC1,inactive: -0.15%
23,O=C(NCC1(N2CCCCC2)CCCCC1)c1ccc(Cl)s1,inactive: -1.09%
24,O=C(OC1CN2CCC1CC2)C1c2ccccc2Oc2ccccc21 (stereo not given),inactive: -9.98%
25,O=c1[nH]c2ccccc2n1C1CCN(C(c2cc3ccccc3o2)c2nnnn2C2CCCCC2)CC1 (stereo not given),inactive: 0.48%

row,Compound,activation
1,CCCCn1nnnc1C(c1ccc(OC)cc1)N1CCC(n2c(=O)[nH]c3ccccc32)CC1 (stereo not given),inactive: -3.36%
2,CCOC(=O)N1CCC(Nc2ccc(OC)cc2)CC1,inactive: -1.93%
3,CC(C)(C)OC(=O)N1CCC(N(C(=O)c2ccccc2)c2ccc(F)cc2)CC1,inactive: 1.22%
4,COc1ccc(C(=O)NCC2(N3CCCCC3)CCCCC2)c(OC)c1OC,inactive: 4.26%
5,CCC(c1nnnn1C1CCCC1)N1CCC(n2c(=O)[nH]c3ccccc32)CC1 (stereo not given),inactive: -1.63%
6,COc1ccc(C(=O)NCC2(N3CCCCC3)CCCCC2)cc1,inactive: -0.79%
7,O=C(NCC1(N2CCCCC2)CCCCC1)c1cccs1,inactive: -3.2%
8,CCCCn1nnnc1C(CC)N1CCC(n2c(=O)[nH]c3ccccc32)CC1 (stereo not given),inactive: -2.12%
9,CCCCn1nnnc1C(c1cccs1)N1CCC(n2c(=O)[nH]c3ccccc32)CC1 (stereo not given),inactive: -7.02%
10,O=C(NCC1(N2CCCCC2)CCCCC1)c1ccc(=O)[nH]c1,inactive: 2.65%
11,Cc1cccc(NC2(C#N)CCN(Cc3ccccc3)CC2)c1,inactive: -6.16%
12,CSc1ccccc1C(=O)NCC1(N2CCCCC2)CCCCC1,inactive: -0.12%
13,O=c1[nH]c2ccccc2n1C1CCN(C(c2ccccc2)c2nnnn2C2CCCCC2)CC1 (stereo not given),inactive: -8.21%
14,CCOC(=O)N1CCC(Nc2cccc(C)c2)CC1,inactive: -3.13%
15,COc1cc(C(=O)NCC2(N(C)C)CCCCC2)ccc1OC(F)F,inactive: 6.66%
16,O=c1[nH]c2ccccc2n1C1CCN(C(c2cccc3ccccc23)c2nnnn2C2CCCC2)CC1 (stereo not given),inactive: -7.38%
17,O=C1CCN(Cc2ccccc2)CC1,inactive: 0.96%
18,CC(C)(C)n1nnnc1C(c1ccccc1)N1CCC(n2c(=O)[nH]c3ccccc32)CC1 (stereo not given),inactive: -1.82%
19,CCOc1ccc(C)cc1CN(CCCl)CCCl,inactive: -0.26%
20,COc1ccc(NC2CCN(CCc3ccccc3)CC2)c(OC)c1,inactive: -1.39%
21,CCOC(=O)N1CCC(Nc2ccc(F)cc2)CC1,inactive: -2.23%
22,O=P1(N(CCCl)CCCl)SCCCS1,inactive: -0.85%
23,CCCCn1nnnc1C(c1cc2ccccc2o1)N1CCC(n2c(=O)[nH]c3ccccc32)CC1 (stereo not given),inactive: 7.97%
24,CCCCOc1ccc(C(=O)NCC2(N3CCOCC3)CCCCC2)cc1,inactive: 5.28%
25,O=C(NCC1(N2CCCCC2)CCCCC1)c1ccc(F)cc1,inactive: 2.79%
